Data reported in patent publication US8088761B2, “Enzyme inhibitors” (Cancer Research Technology Limited, priority 2005, dated 2012).

Biological target: T1, Aurora-A (Homo sapiens, UniProt O14965)
T1 sequence (O14965 1-403): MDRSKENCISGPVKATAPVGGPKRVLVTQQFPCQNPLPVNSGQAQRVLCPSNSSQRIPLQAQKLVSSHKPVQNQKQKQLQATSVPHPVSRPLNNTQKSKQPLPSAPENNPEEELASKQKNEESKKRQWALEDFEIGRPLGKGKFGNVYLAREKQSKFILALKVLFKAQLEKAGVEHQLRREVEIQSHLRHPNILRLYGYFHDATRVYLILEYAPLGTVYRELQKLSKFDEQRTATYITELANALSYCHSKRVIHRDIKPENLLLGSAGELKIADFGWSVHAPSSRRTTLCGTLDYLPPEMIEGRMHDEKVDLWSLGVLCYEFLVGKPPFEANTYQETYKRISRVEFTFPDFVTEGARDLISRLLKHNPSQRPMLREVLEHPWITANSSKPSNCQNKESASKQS
Experiment: Flashplate Aurora A enzyme inhibition assay
Assay type: biochemical
Experimental: Flashplate® Assay for Identification and Evaluation of Aurora-A Inhibitors
On this assay 384-well Basic Flashplate® (SMP400E, PerkinElmer) as solid assay platform was used. The plates were coated overnight at 4° C. with […] at 100 μg/ml in PBS buffer and used after being washed twice with PBS. 5 μl of compound in 2% DMSO was added to each well followed by 15 μl master mix of kinase buffer (50 mM Tris pH 7.5, 10 mM NaCl, 2.5 mM MgCl2, 1 mM […], 20 μM ATP, and 0.025 μCi/μl ^33P-ATP). Finally, 250 ng per well of Aurora-A enzyme was added. The plate was shaken for approximately 2 min on a flat-bed plate shaker (Wellmix, Denley, UK) and incubated for 2 hours at room temperature. The reaction was stopped by washing the plate twice on a 16-pin wash (ELX50 BioTek Instruments Ltd., Northstar, Bedford, UK) with 10 mM sodium pyrophosphate. The plate was then read on a TopCount-NX™ (PerkinElmer Life Sciences UK Ltd., Hounslow, UK).

`COc1ccc(-c2nc3c(N4CCN(Cc5ccc(Cl)cc5)CC4)c(Br)cnc3[nH]2)cc1` [Example 72, 6-Bromo-7-[4-(4-chloro-benzyl)-piperazin-1-yl]-2-(4-methoxy-phenyl)-3H-imidazo[4,5-b]pyridine] was tested, and the IC50 was less than 500 nM.
